# Binding of CDR-mutated scFvs to a peptide of the spike HR2 region

Values reported by Engelhart et al. 2022, doi:10.1038/s41597-022-01779-4 (FLAb copy).

Target: peptide PDVDLGDISGINAS, taken from heptad repeat 2 (HR2) of SARS-CoV-2 spike.

Parent scFv Ab-14: VH joined to VL by three GGGGS repeats. Changes lie in the light chain CDRs alone.
VH: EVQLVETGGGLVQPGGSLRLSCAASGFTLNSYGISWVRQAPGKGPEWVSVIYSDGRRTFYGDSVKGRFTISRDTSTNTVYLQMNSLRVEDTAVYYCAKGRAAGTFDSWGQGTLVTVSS
VL: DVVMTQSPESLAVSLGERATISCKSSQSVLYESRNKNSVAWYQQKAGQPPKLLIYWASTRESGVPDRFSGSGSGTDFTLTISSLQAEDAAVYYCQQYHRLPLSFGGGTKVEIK

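Phage display of a naive human antibody library on the peptide gave the parent. Library AAYL50 holds single substitutions and randomly drawn double and triple substitutions in the CDRs. The assay is AlphaSeq: two haploid yeast populations carry antibody and antigen on their surface. After mating in shaken culture at 30 °C for 16 h, diploids were selected and their barcode pairs sequenced. A regression on co-assayed BCL2-family reference pairs converts the normalised counts of each replicate to an apparent Kd. Each pool was mated in three replicate cultures.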

Each variant is given by its three light chain CDRs, as the data file delimits them; those of the parent are KSSQSVLYESRNKNSVA, WASTRES, QQYHRLPLS.
The read-out is the apparent dissociation constant on a log10 scale (nM): the lower, the stronger.
An entry "nd" has no value in the source: the pair was not observed among the diploids in that replicate. This suggests poor binding but is not conclusive.
For reference, the parent read 0.65 as the reference entry and 1.68 as a member of this library.

CDR-L1 | CDR-L2 | CDR-L3 | log10 Kd, replicates | control signals
KSYQSVLYESRNKNSVA | NASTRES | QQYHRLPLS | -0.26 / 0.09 / -0.13 | 4/9 (4.68)
KSSQSYLYESRNRNSVA | WASTDES | QQYHRLPLS | 5.25 / 4.58 / nd | 4/9 (4.87)
KSSQSVLYESRNKNSCA | WASAHES | QQYHRLPLS | 4.13 / nd / nd | 0/9
KSSYSVLMESRNKHSVA | WASTRES | QQYHRLPLS | 2.10 / 1.76 / 2.16 | 2/9 (3.54)
KSSQSVLYESRNKNSVA | WASTRFS | EQYHRLFLS | nd / nd / nd | 1/9 (4.48)
KSSQSVLYESRNKNSVA | WFSVRFS | QQYHRLPLS | 4.89 / nd / 5.56 | 0/9
KSSGSVLYNSRNINSVA | WASTRES | QQYHRLPLS | 0.23 / 0.93 / 0.45 | 1/9 (3.20)
KSIQSVLYESRNKNSVA | WASTRET | KQYHRLPLS | 0.89 / 0.99 / 0.90 | 1/9 (5.12)
KSSQSVLYESANKNSVA | WMSTRES | QQYHRLPLS | 1.58 / 1.55 / 1.61 | 1/9 (4.05)
KSSQSVLYESRNKNSMA | WASPRES | QQYHRLRLS | nd / nd / nd | 4/9 (4.15)
KSSPSVLYESRNKNSVA | WASTRES | QQYHRLPLS | 2.28 / 2.42 / 2.75 | 5/9 (4.01)
KSSQSVIYESRNKNSVA | WASMRES | QQYHHLPLS | 1.42 / 1.65 / 1.46 | 2/9 (3.89)
KHSQSVLYEERNKNSVA | WASTRES | QQYHRYPLS | 0.53 / 0.98 / 0.69 | 0/9
DSSQEVLYESRNKNSVA | WASTRES | QQYHRPPLS | 3.86 / 3.97 / nd | 2/9 (4.12)
HSSQSVLYESRNKTNVA | WASTRES | QQYHRLPLS | 2.44 / 2.61 / 2.67 | 2/9 (4.66)
KSSRSVLYESRNKNSVA | KASTRES | QQYHRLPLS | nd / nd / nd | 0/9
KSSQSVLYESRNKYSQA | WASTRES | QQYHRLPLM | nd / 3.69 / nd | 2/9 (4.57)
KSSQSVSYESRNKNSVA | WASTREG | QQYHRLDLS | 1.72 / 1.61 / 1.94 | 0/9
QSSQSVFYESRNNNSVA | WASTRES | QQYHRLPLS | 1.12 / 1.31 / 1.29 | 1/9 (3.70)
KSSQSVLYEWRNKNSVA | WASNRET | QQYHRLPLS | 1.80 / 2.44 / 2.37 | 0/9
KSSQSVLYEWRNKNSVE | WASTRES | QQYHRLQLS | nd / nd / nd | 0/9
KSSQSVLYESRNKNSVA | WVSTRES | QQYHSLPLS | nd / nd / nd | 0/9
KSSQSVLYEIRNKNSVA | WKSTRGS | QQYHRLPLS | 4.91 / 3.32 / nd | 2/9 (3.89)
FSSQSVLYESRNKNSVA | WASTRES | QQYHRLPNR | 0.65 / 1.47 / 1.20 | 1/9 (2.79)
KSSQSVLYESRNKNSVA | WCSTDER | QQYHRLPLS | 4.87 / nd / nd | 2/9 (3.89)
KSSQSVLYESRNKNSVA | WSSTRES | QQYHQLVLS | nd / nd / nd | 2/9 (4.89)
KSSQSVAYESRNRNSVA | WASTRES | QQYHRLPTS | 1.18 / 1.22 / 1.27 | 1/9 (5.01)
KSSQSVVSESRNKNSVA | WASTRES | QQYHRLPCS | 1.07 / 1.27 / 1.34 | 4/9 (4.42)
KSSQSVLYESLMKNSVA | WASTRES | QQYHRLPLS | 0.47 / 0.65 / 0.53 | 7/9 (4.90)
KSMQSVLYESRNKNSKF | WASTRES | QQYHRLPLS | nd / 3.05 / nd | 4/9 (3.57)
LSSQSVNYESRMKNSVA | WASTRES | QQYHRLPLS | 1.65 / 1.79 / 1.64 | 2/9 (3.93)
GSSQSVLYECRNPNSVA | WASTRES | QQYHRLPLS | 5.12 / nd / 4.30 | 4/9 (5.18)
KSSQSVLIESRNKNSVA | WASTRES | AQYHRKPLS | 2.82 / nd / 2.20 | 3/9 (2.88)
KSSQSYLYESRNKNSVA | NASTRES | QQYHRLPLS | 0.79 / 0.97 / 0.87 | 6/9 (4.54)
KSSDSVLYFSRNKNSVA | WASTRES | QQYHRLPLS | 2.09 / 2.37 / 2.59 | 0/9
KSSQSVLYETRNKVSVA | WASTRES | QQYHRLWLS | nd / 3.64 / nd | 2/9 (4.65)
KSSMSVLYESRNLNSVA | DASTRES | QQYHRLPLS | -0.41 / -0.05 / -0.30 | 8/9 (5.16)
KLSQSVLYESRRKNSVA | LASTRES | QQYHRLPLS | 0.84 / 0.59 / 0.94 | 0/9

The opening 3 entries, copied out:

CDR-L1,CDR-L2,CDR-L3,"log10 Kd, replicates",control signals
KSYQSVLYESRNKNSVA,NASTRES,QQYHRLPLS,-0.26 / 0.09 / -0.13,4/9 (4.68)
KSSQSYLYESRNRNSVA,WASTDES,QQYHRLPLS,5.25 / 4.58 / nd,4/9 (4.87)
KSSQSVLYESRNKNSCA,WASAHES,QQYHRLPLS,4.13 / nd / nd,0/9

Empty control strains, which show no peptide, gave a signal in 18% of pairings with library AAYL50; the median was 4.19 and 95% of these signals were weaker than 2.99. No background was subtracted. The control count says in how many pairings with the empty strains this scFv gave a signal, with their mean in brackets.